Experimental data from article PMC6692420, “Validation of [^125I]CPCR4.3 as an investigative tool for the sensitive and specific detection of hCXCR4 and mCXCR4 expression in vitro and in vivo” (EJNMMI Research, 2019).

Sequences of proteins named here, by UniProt entry; tags and fusion partners are left off.
UniProt P61073, whole entry: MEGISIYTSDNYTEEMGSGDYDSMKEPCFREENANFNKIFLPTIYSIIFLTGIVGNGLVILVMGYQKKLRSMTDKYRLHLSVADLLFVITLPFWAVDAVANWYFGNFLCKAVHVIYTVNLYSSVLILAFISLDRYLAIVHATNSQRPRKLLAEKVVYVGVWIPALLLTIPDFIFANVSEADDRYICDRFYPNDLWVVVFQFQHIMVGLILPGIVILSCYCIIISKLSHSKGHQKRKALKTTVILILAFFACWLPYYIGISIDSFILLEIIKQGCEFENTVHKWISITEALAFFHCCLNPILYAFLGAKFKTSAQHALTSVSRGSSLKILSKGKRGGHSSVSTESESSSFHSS

Target: T1, hCXCR4 (Homo sapiens, UniProt P61073)
T1 construct: endogenous hCXCR4 (Jurkat); endogenous in cells
Experiment: Competitive binding assay (IC50) on Jurkat cells with [^125I]CPCR4.3 as radioligand
Conditions: Jurkat human T cell leukemia cells, 200,000 cells/sample, radioligand [^125I]CPCR4.3
Method: Affinities for human and murine CXCR4 (hCXCR4 and mCXCR4) were determined in competitive binding assays (IC50) using either Jurkat or Eμ-Myc 1080 mouse lymphoma cells (2 × 10^5 cells/sample) in Hank’s buffered salt solution (1% BSA) and [^125I]CPCR4.3 as radioligand. To allow data normalization, [^natGa] Pentixafor and FC-131 were included as references in this study. Experiments were performed in triplicate with n = 3 per concentration in each experiment. IC50 values were calculated using GraphPad Prism 6.01 (Graph Pad Software, San Diego, USA).

With N=C(N)NCCC[C@@H]1NC(=O)[C@H](CCCNC(=N)N)NC(=O)[C@@H](Cc2ccc(O)cc2)NC(=O)CNC(=O)[C@H](Cc2ccc3ccccc3c2)NC1=O [FC-131] the IC50 was 12.4 ± 3.1 nM.
